Measured affinities in a library of Ab-14 light chain variants

Source: Engelhart et al. 2022 (doi:10.1038/s41597-022-01779-4), MIT Lincoln Laboratory and A-Alpha Bio; data file from the FLAb repository.

Target: peptide PDVDLGDISGINAS, taken from heptad repeat 2 (HR2) of SARS-CoV-2 spike.

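Phage display of a naive human antibody library on the peptide gave the parent. Variants in AAYL50 differ from the parent at up to three CDR positions; double and triple changes were sampled at random. Affinity was read by AlphaSeq, a pooled yeast mating assay with surface-displayed partners. After mating in shaken culture at 30 °C for 16 h, diploids were selected and their barcode pairs sequenced. Each replicate has its own calibration line, from reference interactions of the BCL2 family. Each pool was mated in three replicate cultures.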

The variants keep the heavy chain, the linker and the frameworks of Ab-14 (scFv order VH, a 15-residue (Gly4Ser)3 linker, VL).
VH: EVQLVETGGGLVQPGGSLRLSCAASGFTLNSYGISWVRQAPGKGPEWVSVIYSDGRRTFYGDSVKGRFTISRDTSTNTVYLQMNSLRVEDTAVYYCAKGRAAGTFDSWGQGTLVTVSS
VL: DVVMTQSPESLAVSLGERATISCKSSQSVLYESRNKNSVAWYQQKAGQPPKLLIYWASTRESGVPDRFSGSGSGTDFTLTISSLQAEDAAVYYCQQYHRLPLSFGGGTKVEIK

Variants are written as CDR1, CDR2 and CDR3 of the light chain (limits as in the source). Parent: KSSQSVLYESRNKNSVA, WASTRES, QQYHRLPLS. This list gathers variants with a substitution at L102 (VL, numbered from residue 1). Scale: log10 of Kd in nM, estimated from mating counts; low values are strong binders. Replicates are averaged; those with no signal do not enter the mean. Where no diploid with the target was found in any replicate, the entry reads "nd": below detection, most likely a poor binder, though not proof of it.

CDR-L1	CDR-L2	CDR-L3	log10 Kd (nM), mean	detected
KSSQSVLYESRNKNSVA	CASTRES	QQYHRLPVY	1.73	3/3
KSSQSVLYESRNKNSVA	WHTTRES	QQYHRLPQS	5.26	1/3
KSSQSVLYESRNKNSVA	WQSTRES	VQYHRLPQS	nd	0/3
KTSQSVLYESRNKNSVA	CASTRES	QQYHRLPNS	1.32	3/3
KSSQSVLYESRNKNSVA	WASTRES	QQFHRYPCS	nd	0/3
KSSQSVLLESRNKNSVA	WASTSES	QQYHRLPIS	2.87	3/3
KSSQSVLYETRNKNSVA	QASTRES	QQYHRLPGS	0.65	3/3
KSSQSVLYESANKNSVA	WASTRES	QQYHRIPCS	5.30	1/3
KSSQSVLYESRNCNSVK	WASTRES	QQYHRLPRS	4.33	2/3
KSSQSVLYESRNKNSVA	WASARES	QPYHRLPYS	4.86	2/3
KSSQSVLYESRQKNSVA	WASMRES	QQYHRLPPS	2.54	3/3
KSSQSVLYESRNKNSVA	WVSTRSS	QQYHRLPWS	nd	0/3
KSSQSVLYESRNKNSVA	WALTIES	QQYHRLPPS	4.44	1/3
KSSQSALYCSRNKNSVA	WASTRES	QQYHRLPNS	nd	0/3
KSSQSVLYESRNKNSVA	WAQTRES	QQYHRFPPS	2.56	3/3
KSSHSVLYGSRNKNSVA	WASTRES	QQYHRLPIS	1.59	3/3
KSSQKVLYESRNKNVVA	WASTRES	QQYHRLPTS	4.39	2/3
KVSQSVLYESRNKNSIA	WASTRES	QQYHRLPES	2.07	3/3
KVSQSVLYESRNKNSDA	WASTRES	QQYHRLPPS	nd	0/3
KSSMSVLYESRIKNSVA	WASTRES	QQYHRLPAS	nd	0/3
KPSQSVLRESRNKNSVA	WASTRES	QQYHRLPMS	nd	0/3
KSSQSVLYESRNKNSVA	WASTRES	QQYHRLPIS	1.65	3/3
KSSQSVLYESRNKNSVA	WASGRES	QQYHRLPHS	nd	0/3
KMSQSVLYESNNKNSVA	WASTRES	QQYHRLPIS	0.22	3/3
KSSQSVLYESRNQNSVA	WASTRES	QIYHRLPNS	5.16	1/3
HSSQSVLYESRNKNSVA	WSSTRES	QQYHRLPCS	1.59	3/3
NSSQSVLYESRNKNSVA	WASTRES	QQYYRLPWS	3.42	1/3
KSSQSVLYCSRNKNSVA	WASTRES	QQYHRLPPS	3.12	3/3
KSSQSVLYEHRNKNSVA	WASTRED	QQYHRLPTS	3.55	1/3
KSSQSVLRESRNKNSVA	WASTRES	QQYHRLPIS	2.58	2/3
KSSQSVLYESRHKNSVA	WASTRDS	QQYHRLPQS	5.36	1/3
KSSQSVLYKSRNKNSVA	WASTRES	QQYKRLPTS	2.40	3/3
KSRQSVLYESRNKNSVA	WASTRES	QQYYRLPDS	1.51	3/3
KSLQSVLYESRNKNSVA	WASTYES	QQYHRLPSS	nd	0/3
KSSQSVLYESRWKNQVA	WASTRES	QQYHRLPIS	nd	0/3
KSSQSVLYESRSKNSVA	WASTRES	QQYHRQPMS	1.46	3/3
KSSQSVLYESRNSLSVA	WASTRES	QQYHRLPMS	2.58	3/3
KSSQSVLYESRNKNSVA	WASTRES	QQYFRLPCS	1.17	3/3
KSSQSVLYESRNKNSVA	WASTRES	QQYHRLPKS	3.64	2/3
KWSQSGLYESRNKNSVA	WASTRES	QQYHRLPCS	0.94	3/3
KSSQSVLYESRNKNSSA	WASTRES	EQYHRLPMS	nd	0/3
KSSQSVLVESRNKNSVA	WASTRES	QQYHRLTSS	5.68	1/3
KSSQSVLYESRNKNSVA	WASTRES	QDYHRLPCS	nd	0/3
KSSQSVLYESRNKNRFA	WASTRES	QQYHRLPGS	3.87	2/3
KSSQSVLYESRNKNSVA	WASTRTS	QQYHRLNFS	nd	0/3
KSSQSYLYESRNKNSVA	WASTRES	QQYHSLPES	nd	0/3
KSTQSVLYESRSKNSVA	WASTRES	QQYHRLPDS	1.64	3/3
KSSQSVLYESQSKNSVA	WASTRES	QQYHRLPYS	1.69	3/3
KSSQSVLYESRNKNYVA	WASTRES	QQYHRLCYS	nd	0/3
KSSQSVLYESKNKNSVA	WASTRES	QQYHRLPTS	2.15	3/3
KSSQSVLYESRNKNSVK	WAYTRES	QQYHRLPNS	nd	0/3
KSSQSVLYESRNKMSVA	WASTRES	QQYHRLPCS	nd	0/3
KSSQSVLYYSRNKNSVA	WASTRES	QQYHRLPVY	nd	0/3
KSHQSVLAESRNKNSVA	WASTRES	QQYHRLPAS	nd	0/3
KSSQSVLYESRNKNSVA	WASTRES	QLFHRLPDS	3.88	3/3
KSSQSVLYESRNKNSVA	WAGTRES	QNYHRLPAS	nd	0/3
KSSQSVLYESRNKNSVA	WASTSEI	QQYHRLPGS	3.20	3/3
KWSQSVLYASRNKNSVA	WASTRES	QQYHRLPAS	5.10	1/3
KSSQSVLYESRNKNSVI	WASTRES	QQYHRFPFS	3.60	1/3
KSSQSVLYESRNKNSVA	WASTRES	QQYHKLPIS	1.07	3/3
KSSQSVLYEWRNKNSVA	WASTRES	HQYHRLPPS	4.15	2/3
KSSQSVLYESRNKNSVA	WASTRES	QQWHALPAS	1.81	3/3
KSSQSCLYEKRNKNSVA	WASTRES	QQYHRLPKS	2.92	2/3
KSSQSVLYESRAKNSVA	WASTRES	QQVHRLPPS	1.20	3/3
KSSQSVLYESRRKNSVA	WASTRES	QQYHRLPGV	1.31	3/3
KSSQSVLYESRIKNSVA	WASTLES	QQYHRLPWS	2.37	3/3
KCSQSVLYESRNKNSVA	WASTRES	QQYHRLPKS	nd	0/3
KASQSVCYESRNKNSVA	WASTRES	QQYHRLPPS	4.22	2/3
KSSQVVLYESRNKNSVA	WASTRES	QQYHRLPYS	4.51	2/3
KSSQSVLYEHRNKNSVA	WASTRES	RQYHRLPSS	4.38	2/3
KSSQSVLYEMRNKNWVA	WASTRES	QQYHRLPGS	3.00	1/3

Again, the first 4 entries without any signal:

CDR-L1	CDR-L2	CDR-L3	log10 Kd (nM), mean	detected
KSSQSVLYESRNKNSVA	WQSTRES	VQYHRLPQS	nd	0/3
KSSQSVLYESRNKNSVA	WASTRES	QQFHRYPCS	nd	0/3
KSSQSVLYESRNKNSVA	WVSTRSS	QQYHRLPWS	nd	0/3
KSSQSALYCSRNKNSVA	WASTRES	QQYHRLPNS	nd	0/3

As a blank, each scFv also met three strains without target: over library AAYL50, 18% of these pairings were detected, typically at 4.19 and seldom below 2.99. In this assay the parent's reference entry averaged 0.65; its copy inside this library read 1.68.